Measured values as given in patent US20220168325A1, “METHODS TO PROMOTE CEREBRAL BLOOD FLOW IN THE BRAIN” (THE UNIVERSITY OF VERMONT, priority 2019, published 2022).

Sequences of proteins named here, by UniProt entry; tags and fusion partners are left off. A change or cut given only in a name is not applied to a line headed by its entry.
UniProt P35561: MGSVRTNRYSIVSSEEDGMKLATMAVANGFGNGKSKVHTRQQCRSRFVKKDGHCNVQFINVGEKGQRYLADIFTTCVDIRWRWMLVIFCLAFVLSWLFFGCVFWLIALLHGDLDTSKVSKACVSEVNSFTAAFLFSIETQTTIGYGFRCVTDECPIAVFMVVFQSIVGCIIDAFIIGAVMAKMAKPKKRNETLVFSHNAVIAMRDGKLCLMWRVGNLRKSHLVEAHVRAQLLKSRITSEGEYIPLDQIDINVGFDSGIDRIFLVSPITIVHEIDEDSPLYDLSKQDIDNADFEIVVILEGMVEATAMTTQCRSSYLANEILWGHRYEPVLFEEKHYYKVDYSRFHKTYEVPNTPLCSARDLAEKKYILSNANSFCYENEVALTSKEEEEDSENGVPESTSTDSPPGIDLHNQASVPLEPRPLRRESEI

Target: Kir2.1 channels (Mus musculus, UniProt P35561)
Assay: Patch-clamp recording of Kir2.1 currents in freshly isolated brain capillary endothelial cells (cECs)
Conditions: perforated-patch (intact cytoplasm); PIK93 300 nM, phenylarsine oxide 10 μM, UNC3230 100 nM, bath-applied

O=[As]c1ccccc1 (stereo not shown)
Kir2.1 currents 15 min after PIP2 synthesis inhibitor: significantly suppressed Kir2.1 currents
